## Measured affinities in a library of Ab-95 light chain variants

The measurements come from Engelhart et al. 2022 (doi:10.1038/s41597-022-01779-4) through the FLAb antibody collection.

Binding partner: SARS-CoV-2 spike HR2 peptide, sequence PDVDLGDISGINAS.

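The parent was found by panning a naive human phage display library on the peptide. Library AAYL52 holds single substitutions and randomly drawn double and triple substitutions in the CDRs. Affinity was read by AlphaSeq, a pooled yeast mating assay with surface-displayed partners. The frequency of each diploid, read from paired DNA barcodes, reflects how well the two displayed proteins bind. Scores were corrected for input abundance and mapped to Kd with protein pairs of known affinity run in the same pool. Each pool was mated in three replicate cultures.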

Ab-95 is the parent antibody, in scFv form: VH, then three GGGGS repeats, then VL. The heavy chain is unchanged in all variants.
VH: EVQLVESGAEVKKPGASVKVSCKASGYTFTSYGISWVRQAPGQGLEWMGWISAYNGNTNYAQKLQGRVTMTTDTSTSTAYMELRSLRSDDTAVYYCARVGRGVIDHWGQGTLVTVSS
VL: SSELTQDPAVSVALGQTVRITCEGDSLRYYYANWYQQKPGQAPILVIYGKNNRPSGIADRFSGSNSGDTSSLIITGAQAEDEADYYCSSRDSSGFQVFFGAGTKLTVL

Substitutions are numbered in sequence along the VL above, starting at 1 (not Kabat).
All variants listed here change N33 of the VL, counted from its first residue.
Kd is apparent (estimated from mating counts) and averaged on the log scale over replicates with a signal. Smaller is tighter.
Where no diploid with the target was found in any replicate, the entry reads "no signal": below detection, most likely a poor binder, though not proof of it.
Order: sorted from the lowest average up, undetected variants last.
Background: pairings of library AAYL52 with three empty control strains gave a value in 28% of cases (median 8.2 µM, 5th percentile 800 nM). Values in that range, when seen in few replicates, are hard to tell from nonspecific mating.
Parent in this assay: reference entry 200 nM, copy in this library 180 nM.

* N33H+S88R+F95Y: 1.2 µM (1 of 3 replicates)
* N33W+S55M+D91E: 1.2 µM (3 of 3 replicates)
* Y31H+N33S+P54L: 1.3 µM (3 of 3 replicates)
* N33L+K50R+D91A: 1.5 µM (1 of 3 replicates)
* Y29A+N33C+S88R: 1.9 µM (2 of 3 replicates)
* E23T+N33Q: 2.0 µM (2 of 3 replicates)
* N33S+K50H+R90C: 2.2 µM (2 of 3 replicates)
* E23C+N33H+S93K: 3.8 µM (1 of 3 replicates)
* Y31S+N33H+D91A: 4.0 µM (2 of 3 replicates)
* S26H+N33G+F95R: 4.0 µM (1 of 3 replicates)
* G24L+N33H+P54C: 4.1 µM (3 of 3 replicates)
* N33Q+D91Y: 5.3 µM (3 of 3 replicates)
* N33V+G49A+F98Q: 5.6 µM (1 of 3 replicates)
* N33C+S55P+V97Q: 5.8 µM (1 of 3 replicates)
* A32H+N33W+D91Y: 6.1 µM (1 of 3 replicates)
* N33T+S89I+R90N: 7.0 µM (1 of 3 replicates)
* A32F+N33A+V97K: 7.5 µM (1 of 3 replicates)
* N33E+N52W+Q96L: 7.6 µM (2 of 3 replicates)
* L27W+N33S+Q96C: 8.1 µM (1 of 3 replicates)
* N33I+G49N+N52L: 8.4 µM (1 of 3 replicates)
* N33H+G94W+F98E: 8.9 µM (2 of 3 replicates)
* E23N+N33D+N51L: 12 µM (1 of 3 replicates)
* E23H+Y30Q+N33I: 12 µM (3 of 3 replicates)
* D25N+N33R+G94P: 14 µM (1 of 3 replicates)
* N33D+N52D+R53V: 17 µM (1 of 3 replicates)
* N33T+R53H+S88K: 23 µM (2 of 3 replicates)
* D25C+N33T+V97R: 24 µM (1 of 3 replicates)
* D25F+N33S+S93M: 25 µM (3 of 3 replicates)
* N33M+S88T+F98T: 29 µM (1 of 3 replicates)
* L27S+N33I+V97L: 34 µM (2 of 3 replicates)
* N33S+N51R+S89P: 58 µM (2 of 3 replicates)
* N33S+N51W+R53N: no signal (0 of 3 replicates)
* N33D+N51D+Q96K: no signal (0 of 3 replicates)
* N33T+N52C+Q96K: no signal (0 of 3 replicates)
* N33L+K50I+F98S: no signal (0 of 3 replicates)
* D25A+A32L+N33M: no signal (0 of 3 replicates)
* N33V+N51F+G94L: no signal (0 of 3 replicates)
* S26A+N33L+S88M: no signal (0 of 3 replicates)
* S26C+N33K+S55D: no signal (0 of 3 replicates)
* Y30S+N33P+D91K: no signal (0 of 3 replicates)

For reference, 7 entries of the list once more:

{"changes": "S26C+N33K+S55D", "Kd": "no signal", "seen in": "0 of 3"}
{"changes": "N33S+K50H+R90C", "Kd": "2.2 µM", "seen in": "2 of 3"}
{"changes": "D25C+N33T+V97R", "Kd": "24 µM", "seen in": "1 of 3"}
{"changes": "N33D+N51D+Q96K", "Kd": "no signal", "seen in": "0 of 3"}
{"changes": "N33L+K50R+D91A", "Kd": "1.5 µM", "seen in": "1 of 3"}
{"changes": "Y30S+N33P+D91K", "Kd": "no signal", "seen in": "0 of 3"}
{"changes": "D25F+N33S+S93M", "Kd": "25 µM", "seen in": "3 of 3"}